From PMC8481542
The other results are listed elsewhere or left out.

The chains behind the UniProt entries cited, without tags or fusion partners. Where a name states a change or a piece, a line headed by the entry shows the natural chain unless it says otherwise.
UniProt Q07914: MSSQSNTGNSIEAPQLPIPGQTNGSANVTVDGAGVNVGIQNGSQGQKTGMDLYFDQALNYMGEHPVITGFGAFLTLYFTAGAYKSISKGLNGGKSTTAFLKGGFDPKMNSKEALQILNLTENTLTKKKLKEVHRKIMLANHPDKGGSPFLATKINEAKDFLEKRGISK
UniProt Q01852: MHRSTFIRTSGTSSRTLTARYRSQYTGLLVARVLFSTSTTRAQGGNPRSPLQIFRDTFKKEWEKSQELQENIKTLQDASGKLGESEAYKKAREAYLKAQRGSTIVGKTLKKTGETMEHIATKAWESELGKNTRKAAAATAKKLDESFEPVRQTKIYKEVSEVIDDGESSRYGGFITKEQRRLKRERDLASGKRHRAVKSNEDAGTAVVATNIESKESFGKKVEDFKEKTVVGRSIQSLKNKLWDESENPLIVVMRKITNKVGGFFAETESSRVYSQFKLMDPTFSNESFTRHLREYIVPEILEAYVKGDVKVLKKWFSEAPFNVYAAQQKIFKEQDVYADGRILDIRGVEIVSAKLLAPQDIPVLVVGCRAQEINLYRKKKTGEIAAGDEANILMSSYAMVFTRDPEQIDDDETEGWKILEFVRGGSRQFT

Key:
[1] = molecular target: Mitochondrial import inner membrane translocase subunit TIM14 (UniProt Q07914); experiment: cross-link between two proteins; cross-linking mass spectrometry
[2] = molecular target: Mitochondrial import inner membrane translocase subunit TIM44 (UniProt Q01852); experiment: as above

| Substance | listed as a hit [1] | listed as a hit [2] |
| --- | --- | --- |
| Mitochondrial import inner membrane translocase subunit TIM44, Q01852 | yes |  |
| Mitochondrial import inner membrane translocase subunit TIM17, P39515 |  | yes |
| Mitochondrial import inner membrane translocase subunit TIM23, P32897 |  | yes |
